# Source: PubChem BioAssay AID602277 (University of Pittsburgh Molecular Library Screening Center, 2012)
# The entries are a selection whose mix differs from that of the whole data set. Activity calls are given as the source filed them.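 How the source made its calls: active means inhibition of the reporter signal at or above 50%; inactive means inhibition below 50%.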
# Experiment: TLR3 IRF3 reporter activation blockers – cell-based, poly I:C stimulus, luciferase, 10K MLSCN set, primary screen (AID 602277)
# Conditions: HEK293-TLR3 RL24 IRF3 luciferase reporter, at 10 µM, hits give high values
row,Compound,inhibition
1,O=P(Nc1nccs1)(c1ccccc1)c1ccccc1,inactive: 20.7%
2,Cc1nn(-c2ccccc2)c2c1P(=O)(N1CCOCC1)N(C)C(c1ccccc1)=N2 (stereo not given),inactive: -9.1%
3,CCOP1(=S)c2c(C)nn(CCC#N)c2N=C(c2ccccc2F)N1C (stereo not given),inactive: -5.62%
4,O=C(COc1ccccc1)OC1CN2CCC1CC2 (stereo not given),inactive: 5.42%
5,COP1(=S)c2c(C)nn(CCC#N)c2N=C(c2ccc(F)cc2)N1C (stereo not given),inactive: 18.4%
